## Yeast mating assay B: variants of the scFv Ab-14

All variants were tested on one target, the spike HR2 peptide PDVDLGDISGINAS (SARS-CoV-2).

Parent scFv Ab-14: VH joined to VL by a 15-residue (Gly4Ser)3 linker. Changes lie in the heavy chain CDRs alone.
VH: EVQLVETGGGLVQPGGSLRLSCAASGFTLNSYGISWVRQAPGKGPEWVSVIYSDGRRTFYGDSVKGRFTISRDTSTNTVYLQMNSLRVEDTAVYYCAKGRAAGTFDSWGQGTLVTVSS
VL: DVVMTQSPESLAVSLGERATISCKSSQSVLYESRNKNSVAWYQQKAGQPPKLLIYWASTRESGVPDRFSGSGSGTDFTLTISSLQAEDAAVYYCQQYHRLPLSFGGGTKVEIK

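The parent was found by panning a naive human phage display library on the peptide. The variants were designed computationally from a first round of random CDR variants and then made and measured. Several design methods are mixed in this list. The assay is AlphaSeq: two haploid yeast populations carry antibody and antigen on their surface. Mating (16 h, 30 °C) was followed by selection of diploids and sequencing of their barcodes. Read counts were normalised to the haploid input and turned into Kd by a linear fit to BCL2-family pairs of known affinity, for each replicate. Each pool was mated in six replicate cultures.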

Sequences are complete VH domains. Values are log10 of the apparent Kd in nM; lower means stronger binding. A mean of the replicates is given; it leaves out those without a signal. An entry "no signal" has no value in the source: the pair was not observed among the diploids in any replicate. This suggests poor binding but is not conclusive. In the paper, a design with two or fewer of six values counts as a poor binder. Empty control strains, which show no peptide, gave a signal in 1% of pairings with all heavy chain designs; the median was 2.08 and 95% of these signals were weaker than 0.84. No background was subtracted. Of ten entries with the parent sequence, four were seen in most replicates (averages 0.34 to 2.37), three in one and three in none, so single entries are noisy. A sequence measured in both rounds can read differently, since the two assays cover different ranges.

VH	mean log10 Kd (nM)	replicates with signal
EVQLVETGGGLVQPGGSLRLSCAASGFELNSYGISWVRQAPGKGPEWVSVIYSDGRRTFYGDSVKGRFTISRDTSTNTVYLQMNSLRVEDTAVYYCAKGRTAGTFDFWGQGTLVTVSS	1.36	5/6
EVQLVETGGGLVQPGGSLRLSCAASGFDLNSYGISWVRQAPGKGPEWVSVIYSDGRRTFYKDQVKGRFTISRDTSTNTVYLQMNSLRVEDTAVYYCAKGRTAGTFDSWGQGTLVTVSS	0.63	6/6
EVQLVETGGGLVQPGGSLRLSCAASGFSLDEYGISWVRQAPGKGPEWVSVIYADGVRQAYQDSVKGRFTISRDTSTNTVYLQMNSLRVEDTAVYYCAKGQWHGTMDYWGQGTLVTVSS	no signal	0/6
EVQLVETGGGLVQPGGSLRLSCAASGFKLNSYGISWVRQAPGKGPEWVSVIYSDGRRTFYGDSVKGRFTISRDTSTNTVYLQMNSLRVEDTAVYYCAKGSTAGTFDVWGQGTLVTVSS	0.66	6/6
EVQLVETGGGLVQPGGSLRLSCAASGFDLNEYGISWVRQAPGKGPEWVSVIYADGSRTAYADSVKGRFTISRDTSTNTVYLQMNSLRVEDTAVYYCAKGNVAGTFDIWGQGTLVTVSS	-0.44	6/6
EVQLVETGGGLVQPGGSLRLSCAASGFTLNSYGISWVRQAPGKGPEWVSVIYADGRRTFYADSVKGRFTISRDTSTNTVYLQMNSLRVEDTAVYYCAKGKAAGTFDSWGQGTLVTVSS	-0.32	6/6
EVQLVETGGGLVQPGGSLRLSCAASGFDVNEYGISWVRQAPGKGPEWVSVIYADGVRRTYQDAVKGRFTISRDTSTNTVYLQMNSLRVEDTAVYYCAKGNQSGVVDVWGQGTLVTVSS	no signal	0/6
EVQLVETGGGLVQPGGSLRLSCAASGFDLNEYGISWVRQAPGKGPEWVSVIYADGRRTAYIDSVKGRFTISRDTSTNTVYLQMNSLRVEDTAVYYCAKGNVAGTFDIWGQGTLVTVSS	-0.83	6/6
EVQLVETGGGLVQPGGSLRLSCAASGFTLNEYGISWVRQAPGKGPEWVSVIYSDGRRTFYSDSVKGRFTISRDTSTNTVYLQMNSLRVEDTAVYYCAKGKPAGTFDSWGQGTLVTVSS	1.80	5/6
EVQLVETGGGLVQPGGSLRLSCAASGFDLEEYGISWVRQAPGKGPEWVSVIYADGMRTAYSDSVKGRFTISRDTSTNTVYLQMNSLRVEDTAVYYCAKGNVAGTFDIWGQGTLVTVSS	-0.51	6/6
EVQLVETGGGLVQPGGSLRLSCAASKFTLNSYGISWVRQAPGKGPEWVSVIYSDGRRTFYGDSVKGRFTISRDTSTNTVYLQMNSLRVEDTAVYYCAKGQTAGTFDSWGQGTLVTVSS	1.70	1/6
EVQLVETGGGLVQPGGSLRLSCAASGFDLNEYGISWVRQAPGKGPEWVSVIYADGRRTFYIDSVKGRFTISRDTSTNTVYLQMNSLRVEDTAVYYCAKGEIAGTFDMWGQGTLVTVSS	-0.12	6/6
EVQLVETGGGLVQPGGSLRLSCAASGFSLNSYGISWVRQAPGKGPEWVSVIYSDGRRTFYGDDVKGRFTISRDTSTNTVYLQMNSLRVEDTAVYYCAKGEAAGTFDKWGQGTLVTVSS	0.42	6/6
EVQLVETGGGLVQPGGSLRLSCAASGFDLEDYGISWVRQAPGKGPEWVSVIYADGVRTAYSQNSKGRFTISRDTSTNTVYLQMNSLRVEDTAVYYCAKGENGVALYIWGQGTLVTVSS	no signal	0/6
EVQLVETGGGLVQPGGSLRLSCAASGFELNSYGISWVRQAPGKGPEWVSVIYSDGRRTFYGDSVKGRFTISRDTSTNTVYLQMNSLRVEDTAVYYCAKGHAAGTFDDWGQGTLVTVSS	1.22	6/6
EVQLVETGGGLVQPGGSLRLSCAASGFDLNEYGISWVRQAPGKGPEWVSVIYADGRRTFYADSVKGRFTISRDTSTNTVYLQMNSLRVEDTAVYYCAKGNNAGTFFSWGQGTLVTVSS	1.56	5/6
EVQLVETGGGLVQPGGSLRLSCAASGFSLQEYGISWVRQAPGKGPEWVSVIYADGMRNQYANTVKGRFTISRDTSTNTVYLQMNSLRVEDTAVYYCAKGMEAGVFVYWGQGTLVTVSS	no signal	0/6
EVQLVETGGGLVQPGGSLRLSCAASGFDLNEYGISWVRQAPGKGPEWVSVIYADGMRTAYTDSVKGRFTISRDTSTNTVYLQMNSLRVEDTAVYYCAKGEAAGTFDLWGQGTLVTVSS	-0.64	6/6

Top 2 of the variants detected in all replicates, tightest first:

VH	mean log10 Kd (nM)	replicates with signal
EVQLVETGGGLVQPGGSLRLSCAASGFDLNEYGISWVRQAPGKGPEWVSVIYADGRRTAYIDSVKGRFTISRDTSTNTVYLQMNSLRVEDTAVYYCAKGNVAGTFDIWGQGTLVTVSS	-0.83	6/6
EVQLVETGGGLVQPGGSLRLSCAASGFDLNEYGISWVRQAPGKGPEWVSVIYADGMRTAYTDSVKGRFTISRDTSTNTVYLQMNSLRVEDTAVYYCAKGEAAGTFDLWGQGTLVTVSS	-0.64	6/6

Reference: Li et al. 2023, doi:10.1038/s41467-023-39022-2. File: FLAb, binding data.